Source: PubChem BioAssay AID624168 (Sanford-Burnham Center for Chemical Genomics, 2012)
The entries are a selection whose mix differs from that of the whole data set. Active and inactive are the calls of the source.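 The calls were made as follows: active = activation of at least 8% versus controls, or a plate z-score of at least 8; inactive = the rest.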

Test: activators of alpha-DG glycosylation, primary screen, uHTS, Pro5-aDG cells, AlphaScreen (AID 624168);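 also: Pro5 are CHO cells carrying HIG-tagged alpha-DG that lacks glycosylation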
Conditions: alpha-DG glycosylation AlphaScreen (IIH6), at 10 µM, active compounds read high, 0% Pro5, 100% B10-LARGE cell signal
In the case of COC(=O)C1(C)COP(=O)(N2CCCCCC2)OC1 (centres undefined), the activation is reported as inactive: -0.1%. In the case of ClCCSc1nnc(-c2cccnc2)o1, the activation is reported as inactive: 0.3%. In the case of CCN(CC)C(=S)SC(NC=O)C(Cl)(Cl)Cl (centres undefined), the activation is reported as inactive: 0.7%. With O=C(OC1CN2CCC1CC2)c1cccc2[nH]cnc12 (centres undefined) the activation was inactive: 0%. For CC(C)NC(=O)NP(=O)(Oc1ccccc1)Oc1ccccc1, the activation was inactive: 0.4%. For O=[N+]([O-])c1cc([N+](=O)[O-])c(-c2ccn[nH]2)s1, the activation was active: 9.5%. In the case of CC1CCNP(=O)(N(CCCl)CCCl)O1 (centres undefined), the activation is reported as inactive: -0.1%. In the case of O=C(O)C(O)c1ccc(N(CCCl)CCCl)cc1 (centres undefined), the activation is reported as inactive: -0.1%. In the case of CCOC(=O)Nc1ccc([As](=O)(O)O)c(O)c1, the activation is reported as inactive: 0.1%. In the case of CCCCOc1ccc(C(=O)NCC2(N3CCCCC3)CCCCC2)cc1OC, the activation is reported as inactive: 0%. With Cc1cc(SC(NC(=O)c2ccccc2)C(Cl)(Cl)Cl)nc(C(C)C)n1 (centres undefined) the activation was inactive: 1.8%. In the case of COP(=O)(OC)N1CC1c1ccccc1 (centres undefined), the activation is reported as inactive: -0.3%. With CCOC(=O)Nc1cccc([As](=O)(O)O)c1 the activation was inactive: 0%. For O=[N+]([O-])c1ccc(Nc2ccc(Oc3ccc([N+](=O)[O-])cc3[N+](=O)[O-])cc2)c([N+](=O)[O-])c1, the activation was inactive: 0%. With Cc1cc(SC(NC=O)C(Cl)(Cl)Cl)ncn1 (centres undefined) the activation was inactive: 0.3%. With O=P(Nc1ccccn1)(c1cccc2ccccc12)c1cccc2ccccc12 the activation was inactive: -0.1%. In the case of COP1(=S)c2c(C)nn(CCC#N)c2N=C(c2ccc(F)cc2)N1C (centres undefined), the activation is reported as inactive: 0%. For COC(=O)C1(C)COP(=O)(N2CCCC2)OC1 (centres undefined), the activation was inactive: 0%. For O=C(COc1ccccc1)OC1CN2CCC1CC2 (centres undefined), the activation was inactive: -0.4%. For O=C(Nc1ccncc1[N+](=O)[O-])c1ccc([N+](=O)[O-])cc1[N+](=O)[O-], the activation was inactive: 0.5%. With O=C(O)C(=O)c1ccc(N(CCCl)CCCl)cc1 the activation was inactive: 0%. For CCOC(=O)c1ccc(NC(=O)C(C)(CCl)SC)cc1 (centres undefined), the activation was inactive: -0.1%. For O=C(OC1CN2CCC1CC2)c1cccc([N+](=O)[O-])c1 (centres undefined), the activation was inactive: 0%. With CSc1ccc(Nc2c([N+](=O)[O-])cc([N+](=O)[O-])cc2[N+](=O)[O-])cc1 the activation was inactive: -0.2%. In the case of CCC(C)N(CC(C)C)C(=S)SC(NC(C)=O)C(Cl)(Cl)Cl (centres undefined), the activation is reported as inactive: -0.3%. In the case of CN(CCCl)Cc1cc(Cl)c(NC2=NCCN2)c(Cl)c1, the activation is reported as inactive: 0.1%. With CCOP(=O)(Nc1ccc(C)cn1)OCC the activation was inactive: 0%. For CCC1=CC2Cc3nc4ccc(Cl)cc4c(N)c3C(C1)C2 (centres undefined), the activation was active: 3.4%. In the case of O=P1(Nc2ccccn2)COc2ccccc2OC1, the activation is reported as inactive: 0.6%. In the case of CCOP(=O)(NC(=NC(C)c1ccccc1)NC(C)c1ccccc1)OCC (centres undefined), the activation is reported as inactive: -0.2%. With Clc1n[nH]nc1-c1nn[nH][15n]1 the activation was inactive: 0%. For O=P1(N(CCCl)CCCl)NCCC(C(F)(F)F)O1 (centres undefined), the activation was inactive: -0.3%. For CC(C)(C)C(=O)NC(Sc1ncccn1)C(Cl)(Cl)Cl (centres undefined), the activation was inactive: -0.1%. In the case of COc1ccccc1CNC(=O)COC(=O)C(O)(c1ccccc1)c1ccccc1, the activation is reported as inactive: 0.1%. In the case of CC1(CBr)Cn2c(nc3ccccc3c2=O)S1 (centres undefined), the activation is reported as inactive: -0.6%. With CN(C(=O)Cc1ccc(Cl)c(Cl)c1)[C@@H]1CCCC[C@H]1N1CCCC1 the activation was inactive: 0%. For CC(C)/C=N\N=C(\N)N[N+](=O)[O-], the activation was inactive: -0.5%. In the case of Cc1nn(-c2ccccc2)c2c1P(=O)(N1CCOCC1)N(C)C(c1ccccc1)=N2 (centres undefined), the activation is reported as inactive: 0.1%. In the case of Cc1ccc(C(=O)OC2CN3CCC2CC3)cc1 (centres undefined), the activation is reported as inactive: 0%. In the case of CC1CCC(C(C)C)C(OP(=O)(Nc2ccccn2)c2ccccc2)C1 (centres undefined), the activation is reported as inactive: -0.2%. For O=C(/C=C/c1ccccc1)OC1CN2CCC1CC2 (centres undefined), the activation was inactive: 0%. In the case of CCCC1OP(=O)(Nc2ccccc2)OCC1CC (centres undefined), the activation is reported as inactive: -0.2%. With CN(C)C1(CNC(=O)c2ccc(S(C)(=O)=O)cc2)CCCCC1 the activation was inactive: -0.1%. With O=P1(Nc2ncccn2)COc2ccccc2OC1 the activation was inactive: 0%. In the case of Cc1ccc(S(=O)(=O)N(CCCN)CCCc2c(C)nc(N)[nH]c2=O)cc1, the activation is reported as inactive: -0.2%. For NS(=O)(=O)c1cccc(NC(=O)COC(=O)C(O)(c2ccccc2)c2ccccc2)c1, the activation was inactive: -0.1%. For O=P1(Nc2ccc(Br)cn2)COc2ccccc2OC1, the activation was inactive: 0%. For Cc1ccc(OCC(=O)OC2CN3CCC2CC3)cc1 (centres undefined), the activation was inactive: -0.2%. In the case of O=[As](O)(c1cccs1)c1cccs1, the activation is reported as inactive: 0.1%. With Nc1cccc([As](=O)(O)c2ccccc2)c1 the activation was inactive: -0.1%. With CS(=O)(=O)c1cc([N+](=O)[O-])c2no[n+]([O-])c2c1 the activation was inactive: 0.1%. With CCOP1(=S)c2c(C)nn(CCC#N)c2N=C(c2ccccc2F)N1C (centres undefined) the activation was inactive: -0.1%. With O=P(Nc1nccs1)(c1ccccc1)c1nc2ccccc2s1 (centres undefined) the activation was inactive: 0.3%. In the case of O=P(Nc1nccs1)(Oc1ccccc1)Oc1ccccc1, the activation is reported as inactive: -0.3%. For O=C(O)COc1ccc([As](=O)(O)O)cc1[N+](=O)[O-], the activation was inactive: 0.4%. For Nc1ccccc1[As](=O)(O)c1ccccc1, the activation was inactive: 0%. In the case of NC(=O)Nc1ccc([As](=O)(O)O)cc1, the activation is reported as inactive: -0.1%. In the case of CN(C)C(=O)c1cc([N+](=O)[O-])cc2c1-c1c(cc([N+](=O)[O-])cc1[N+](=O)[O-])C2=O, the activation is reported as inactive: -0.3%. With O=[N+]([O-])c1ccc2c(c1)nnn2O the activation was inactive: -0.2%. For CN(C(=O)Cc1ccc(Cl)c(Cl)c1)[C@H]1CC[C@@]2(CCCO2)C[C@@H]1N1CCCC1, the activation was inactive: 0.1%. In the case of N#CCCN(C(=O)COC(=O)C(O)(c1ccccc1)c1ccccc1)c1ccc(F)cc1, the activation is reported as inactive: 0.2%. With CN(C(=O)Cc1ccccc1)[C@@H]1CC[C@]2(CCCO2)C[C@H]1N1CCCC1 the activation was inactive: 1.6%. With CCOP1(=S)c2c(C)nn(CCC#N)c2N=C(c2ccc(F)cc2)N1C (centres undefined) the activation was inactive: 0.3%. In the case of COc1cc(C(=O)NCC2(N3CCOCC3)CCCCC2)cc(Cl)c1OC(C)C, the activation is reported as inactive: -0.1%. In the case of O=[As](O)(O)c1cccnc1, the activation is reported as inactive: 0%. In the case of CS(=O)(=O)c1ccc(Cl)c(NC(=O)COC(=O)C(O)(c2ccccc2)c2ccccc2)c1, the activation is reported as inactive: -0.1%. In the case of O=C(OC1CN2CCC1CC2)c1ccc(Cl)cc1 (centres undefined), the activation is reported as inactive: 0%. With O=[As](O)(c1cccc(O)c1)c1cccc(O)c1 the activation was inactive: 0%. In the case of Cc1cccc(OCC(=O)OC2CN3CCC2CC3)c1 (centres undefined), the activation is reported as inactive: 0%. With CCCOP(=S)(Nc1nc(N)cc(=O)[nH]1)OCCC the activation was inactive: 0.1%. With Cc1ccc(NCCc2c([N+](=O)[O-])cc([N+](=O)[O-])cc2[N+](=O)[O-])cc1 the activation was inactive: 0.1%. With Nc1cccc2c([As](=O)(O)O)cccc12 the activation was inactive: 0.1%. In the case of COc1cc(C2NCCC3(OCCO3)C2(C)C)cc(OC)c1OC (centres undefined), the activation is reported as inactive: 0.1%. With CCOP(=O)(Nc1cccc2ccccc12)OCC the activation was inactive: 0.2%.
